Values of other authors in publication PMC6176901 (ChemMedChem, 2018).

Legend:
[1] = biological target: T1, Drosophila melanogaster Golgi α-mannosidase (GMIIb) (Drosophila melanogaster, UniProt Q9VF33); conditions: read-out: GMIIb IC50; ref 9q; cited from earlier work
T1 sequence (Q9VF33 31-1249): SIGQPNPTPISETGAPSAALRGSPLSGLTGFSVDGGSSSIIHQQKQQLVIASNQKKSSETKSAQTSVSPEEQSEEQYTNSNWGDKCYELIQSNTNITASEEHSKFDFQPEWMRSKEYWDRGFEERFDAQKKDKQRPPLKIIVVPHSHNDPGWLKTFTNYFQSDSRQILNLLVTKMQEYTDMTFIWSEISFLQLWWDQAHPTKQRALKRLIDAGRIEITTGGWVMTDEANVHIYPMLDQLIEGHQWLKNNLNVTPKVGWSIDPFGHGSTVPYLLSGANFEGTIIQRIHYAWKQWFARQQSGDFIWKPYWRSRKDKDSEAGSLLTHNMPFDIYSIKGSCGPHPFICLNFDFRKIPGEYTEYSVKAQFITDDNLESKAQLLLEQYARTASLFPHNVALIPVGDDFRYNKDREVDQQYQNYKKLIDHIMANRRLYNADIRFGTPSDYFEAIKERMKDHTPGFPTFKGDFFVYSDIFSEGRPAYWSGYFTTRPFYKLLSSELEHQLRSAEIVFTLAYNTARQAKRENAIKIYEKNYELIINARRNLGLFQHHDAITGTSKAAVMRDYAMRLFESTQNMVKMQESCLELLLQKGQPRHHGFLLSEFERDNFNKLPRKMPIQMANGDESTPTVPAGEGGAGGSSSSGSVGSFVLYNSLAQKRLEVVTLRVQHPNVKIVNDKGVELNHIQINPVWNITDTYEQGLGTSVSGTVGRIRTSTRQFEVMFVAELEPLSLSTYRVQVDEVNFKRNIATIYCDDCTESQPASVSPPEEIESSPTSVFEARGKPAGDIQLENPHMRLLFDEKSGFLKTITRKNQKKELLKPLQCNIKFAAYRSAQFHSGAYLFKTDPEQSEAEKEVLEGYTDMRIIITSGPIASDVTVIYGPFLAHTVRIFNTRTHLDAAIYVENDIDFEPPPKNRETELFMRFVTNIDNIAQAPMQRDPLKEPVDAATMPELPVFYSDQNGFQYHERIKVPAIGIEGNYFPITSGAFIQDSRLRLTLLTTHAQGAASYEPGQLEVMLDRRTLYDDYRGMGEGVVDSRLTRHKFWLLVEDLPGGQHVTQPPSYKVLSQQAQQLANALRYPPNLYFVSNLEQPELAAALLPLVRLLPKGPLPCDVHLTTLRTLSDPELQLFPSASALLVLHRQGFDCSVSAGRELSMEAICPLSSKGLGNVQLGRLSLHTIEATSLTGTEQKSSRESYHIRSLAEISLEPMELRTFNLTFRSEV

[2] = biological target: T2, Drosophila melanogaster lysosomal α-mannosidase (LManII) (Drosophila melanogaster, UniProt Q9VKV1); conditions: read-out: LManII IC50; ref 9q; cited from earlier work
T2 sequence (Q9VKV1 25-1080): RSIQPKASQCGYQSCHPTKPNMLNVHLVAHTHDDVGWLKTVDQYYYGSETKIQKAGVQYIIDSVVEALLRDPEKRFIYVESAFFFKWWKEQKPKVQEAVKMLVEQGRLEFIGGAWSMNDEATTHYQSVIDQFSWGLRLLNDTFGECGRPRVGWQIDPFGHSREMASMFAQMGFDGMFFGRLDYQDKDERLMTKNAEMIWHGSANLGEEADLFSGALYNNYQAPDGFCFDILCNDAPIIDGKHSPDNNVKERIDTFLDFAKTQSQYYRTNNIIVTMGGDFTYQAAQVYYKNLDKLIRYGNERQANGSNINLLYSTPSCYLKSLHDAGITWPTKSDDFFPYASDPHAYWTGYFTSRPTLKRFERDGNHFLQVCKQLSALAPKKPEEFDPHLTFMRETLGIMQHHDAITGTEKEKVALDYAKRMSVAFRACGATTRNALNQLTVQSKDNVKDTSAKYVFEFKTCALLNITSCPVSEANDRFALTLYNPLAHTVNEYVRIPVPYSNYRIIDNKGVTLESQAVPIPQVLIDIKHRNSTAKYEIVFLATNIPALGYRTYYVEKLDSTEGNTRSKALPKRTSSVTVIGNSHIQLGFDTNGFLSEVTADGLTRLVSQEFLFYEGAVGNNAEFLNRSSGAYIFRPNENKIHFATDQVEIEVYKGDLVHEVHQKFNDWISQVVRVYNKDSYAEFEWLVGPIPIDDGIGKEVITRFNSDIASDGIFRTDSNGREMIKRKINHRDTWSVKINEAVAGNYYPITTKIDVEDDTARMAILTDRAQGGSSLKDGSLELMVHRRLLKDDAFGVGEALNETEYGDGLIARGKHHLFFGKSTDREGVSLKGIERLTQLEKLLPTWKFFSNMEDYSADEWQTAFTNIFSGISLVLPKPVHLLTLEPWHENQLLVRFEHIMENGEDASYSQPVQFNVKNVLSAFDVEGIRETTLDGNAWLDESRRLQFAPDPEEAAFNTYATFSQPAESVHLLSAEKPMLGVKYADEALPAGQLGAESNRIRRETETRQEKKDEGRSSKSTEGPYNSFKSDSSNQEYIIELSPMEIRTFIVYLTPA

O[C@H]1[C@H]2[C@H](O)CCCN2C[C@H]1O [Compound 1, (1S,2R,8R,8aR)-trihydroxy-indolizidine]
IC50 [1]: 50 nM | IC50 [2]: 110 nM
